Reference: patent US12616711B2, “Therapeutic dendrimer” (Starpharma Pty Ltd, priority 2019, dated 2026)

Legend:
[1] = Gemcitabine release from dendrimers in PBS; assay type: physicochemical; details: PBS pH 7.4, 37° C.
Protocol: (§1) A study was carried out to determine the rate of gemcitabine release from dendrimer compounds in PBS and citrate buffer. Gemcitabine-conjugated dendrimers of the present disclosure, and a comparative example dendrimer, were each dissolved in PBS Buffer (2 mL, 10 mM, pH 7.4) or Citrate Buffer (2 mL, 0.1 M, pH 4.5) and held at 37° C. Samples were then analysed by injecting 5 μL of the solution on HPLC. At various time points, samples were analysed by HPLC. HPLC (C8 XBridge, 3×100 mm), gradient: 5% ACN/H2O (0-1 min), 5-80% ACN (1-7 min), 80% ACN (7-12 min), 80-5% ACN (12-13 min), 5% ACN (13-15 min), 243 nm, 10 mM ammonium formate buffer, 0.4 mL/min.

[2] = Gemcitabine release from dendrimers in citrate buffer; assay type: physicochemical; details: Citrate Buffer pH 4.5, 37° C.
Protocol: as §1

Row | Substance | % Gemcitabine released in PBS ([1]; 0 h) | % Gemcitabine released in PBS ([1]; 0.08 h) | % Gemcitabine released in PBS ([1]; 2 h) | % Gemcitabine released in PBS ([1]; 4 h) | % Gemcitabine released in PBS ([1]; 6 h) | % Gemcitabine released in PBS ([1]; 8 h) | % Gemcitabine released in PBS ([1]; 10 h) | % Gemcitabine released in PBS ([1]; 12 h) | % Gemcitabine released in PBS ([1]; 24 h) | % Gemcitabine released in PBS ([1]; 26 h) | % Gemcitabine released in PBS ([1]; 28 h) | % Gemcitabine released in PBS ([1]; 30 h) | % Gemcitabine released in PBS ([1]; 32 h) | % Gemcitabine released in PBS ([1]; 34 h) | % Gemcitabine released in PBS ([1]; 36 h) | % Gemcitabine released in citrate buffer ([2]; 0 h) | % Gemcitabine released in citrate buffer ([2]; 0.08 h) | % Gemcitabine released in citrate buffer ([2]; 2 h) | % Gemcitabine released in citrate buffer ([2]; 4 h) | % Gemcitabine released in citrate buffer ([2]; 6 h) | also measured
1 | [BHA Lys][Lys]30[Lys]32 [Compound 6, [BHA Lys][Lys]30[Lys]32 [(α-NH-DGA-Gemcitabine)32 (ε-NHPEG˜2100)32]] | 0% | 4.06% | 22.07% | 35.48% | 44.46% | 51.97% | 58.3% | 63.5% | 80.11% | 81.61% | 83.04% | 84.51% | 84.76% | 86.95% | 87.28% | 0% | 4.27% | 5.33% | 5.93% | 6.87% | % Gemcitabine released in citrate buffer ([2]; 8 h): 7.28%; % Gemcitabine released in citrate buffer ([2]; 10 h): 8.3%; % Gemcitabine released in citrate buffer ([2]; 12 h): 9.11%; % Gemcitabine released in citrate buffer ([2]; 24 h): 13.16%; % Gemcitabine released in citrate buffer ([2]; 26 h): 13.13%; % Gemcitabine released in citrate buffer ([2]; 28 h): 13.76%; % Gemcitabine released in citrate buffer ([2]; 30 h): 14.68%; % Gemcitabine released in citrate buffer ([2]; 32 h): 15.01%; % Gemcitabine released in citrate buffer ([2]; 34 h): 15.65%; % Gemcitabine released in citrate buffer ([2]; 36 h): 16.46%
2 | [BHA Lys][Lys]30[Lys]32 [Compound 8, [BHA Lys][Lys]30[Lys]32 [(α-NH-Glu-Gemcitabine)32 (ε-NHPEG˜2100)32]] | 0% | 7.04% | 7.83% | 8.09% | 8.05% | 8.29% | 8.79% | 9.08% | 12.43% | 12.68% | 13.47% | 13.11% | 14.12% | 14.34% | 15.01% | 0% | 5.93% | 6.14% | 5.36% | 5.38% | % Gemcitabine released in citrate buffer ([2]; 8 h): 5.71%; % Gemcitabine released in citrate buffer ([2]; 10 h): 5.43%; % Gemcitabine released in citrate buffer ([2]; 12 h): 5.79%; % Gemcitabine released in citrate buffer ([2]; 24 h): 6.65%; % Gemcitabine released in citrate buffer ([2]; 26 h): 6.49%; % Gemcitabine released in citrate buffer ([2]; 28 h): 6.95%; % Gemcitabine released in citrate buffer ([2]; 30 h): 6.18%; % Gemcitabine released in citrate buffer ([2]; 32 h): 6.29%; % Gemcitabine released in citrate buffer ([2]; 34 h): 6.17%; % Gemcitabine released in citrate buffer ([2]; 36 h): 6.28%
